Test results: patent publication US9845308B2, “Isoindoline inhibitors of ROR-gamma” (Vitae Pharmaceuticals, Inc., priority 2014, dated 2017)
Read-outs that look alike come from different tables or passages of the source.

Chains of the proteins cited; added tags and fusions are not shown. A line that says so, or that is headed by a name, gives the form on record, which may keep a tag or linker. Residues count along the entry.
UniProt P51449, 269-508: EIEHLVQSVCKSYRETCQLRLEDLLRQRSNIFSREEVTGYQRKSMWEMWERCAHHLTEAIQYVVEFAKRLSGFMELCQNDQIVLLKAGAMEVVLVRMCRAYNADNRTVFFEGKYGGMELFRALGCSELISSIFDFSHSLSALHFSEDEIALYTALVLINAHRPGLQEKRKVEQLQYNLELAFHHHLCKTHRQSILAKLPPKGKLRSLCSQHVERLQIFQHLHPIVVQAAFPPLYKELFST
UniProt P51449, other isoform, or with tags, fused parts or gaps: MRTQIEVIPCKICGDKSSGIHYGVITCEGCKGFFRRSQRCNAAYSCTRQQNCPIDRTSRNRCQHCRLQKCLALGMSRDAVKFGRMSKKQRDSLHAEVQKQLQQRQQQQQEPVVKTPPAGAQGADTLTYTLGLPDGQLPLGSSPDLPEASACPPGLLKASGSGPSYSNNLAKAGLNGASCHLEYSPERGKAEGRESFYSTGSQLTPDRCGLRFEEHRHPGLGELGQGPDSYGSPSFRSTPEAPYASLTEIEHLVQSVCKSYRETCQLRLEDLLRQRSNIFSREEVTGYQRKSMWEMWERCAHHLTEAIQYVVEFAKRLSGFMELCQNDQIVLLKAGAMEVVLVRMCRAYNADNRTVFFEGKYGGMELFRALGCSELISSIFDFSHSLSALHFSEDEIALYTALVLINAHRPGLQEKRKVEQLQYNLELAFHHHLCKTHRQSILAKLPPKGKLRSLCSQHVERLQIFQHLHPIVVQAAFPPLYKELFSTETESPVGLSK

What was measured:
[1] = biological target: recombinant RORγ Ligand Binding Domain (LBD) protein (Homo sapiens (Human), UniProt P51449); experiment: Radio-Ligand RORγ Binding Assay (Assay 1); settings: read-out: RORγ Binding Ki Range* (nM) (Assay 1)
Protocol: Radio-Ligand RORγ Binding Assay (Assay 1)
Compounds of the present invention were tested for ability to bind to RORγ in a cell-free competition assay with commercially available radio-ligand (RL), 25-hydroxy[26,27-^3H]-cholesterol (PerkinElmer, Cat. #NET674250UC), for a ligand binding site on a recombinant RORγ Ligand Binding Domain (LBD) protein expressed as a 6×His-Glutathione-S-Transferase (GST) fusion. […] The plate was shaken at 700 rpm for 20 min and incubated for 10 min at rt, after which 40 μL of poly-Lys YSi SPA beads (PerkinElmer, Cat. #RPNQ0010) were added to achieve 50 μg of the beads per well. The plate was incubated on an orbital shaker for 20 min and then for 10 min without agitation at rt. SPA signal for tritium beta radiation was registered on PerkinElmer Microbeta plate reader. […] The percent inhibition vs. concentration data were fit into a four-parameter model, and IC50 values were calculated from the fit as the concentrations corresponding to the inflection points on the dose-response curves. […]

[2] = biological target: full-length RORγt in Jurkat cells (Homo sapiens (Human), UniProt P51449); experiment: RORγt 5×RORE Assay in Jurkat Cells (Assay 2); assay type: cell-based; settings: 5xRORE secreted Nanoluc luciferase reporter, 16-18 hrs, read-out: RORγt5X IC50 Range* (nM) (Assay 2)
Protocol: [formula] RORγt 5×RORE Assay in Jurkat Cells (Assay 2)
Compounds of the present invention were tested for RORγ inverse agonist activity in a cell-based, transcriptional activity assay. […] (Promega, Cat. #N1021) using KpnI and HindIII restriction sites. […] Tested compounds were added to the cells in the same media (final concentration of DMSO was 0.1% (v/v)), and the plates were incubated at 37° C./5% CO2 for 16-18 hrs. Luciferase activity in the conditioned supernatants was determined with NanoGlo® assay reagents (Promega, Cat.#N1130).

[3] = competition with 25-hydroxy[26,27-3H]-cholesterol, SPA

| Compound | Ki [1, 3] [nM] | IC50 [2] [nM] | Ki [1] [nM] |
| --- | --- | --- | --- |
| CCS(=O)(=O)c1ccc(CNC(=O)c2ccc3c(c2)CN(CC2CCC(O)(C(F)(F)F)CC2)C3C(C)C)nc1 (single isomer, unassigned) [Compound 11d] | > 1000 | – | – |
| CCS(=O)(=O)c1ccc(CNC(=O)c2ccc3c(c2)CN(CC2CCC(O)(C(F)(F)F)CC2)C3C(C)C)nc1 (single isomer, unassigned) [Compound 11c] | < 100 | – | – |
| CCO[C@H]1CC[C@H](CN2Cc3cc(C(=O)N[C@@H](CCO)c4ccc(S(=O)(=O)CC)cc4)ccc3[C@@H]2C(C)C)CC1 (single isomer, unassigned) [Compound 10a] | < 100 | < 100 | – |
| CCS(=O)(=O)c1ccc(CNC(=O)c2ccc3c(c2)CN(CC2CCC(O)(C(F)(F)F)CC2)C3C(C)C)nc1 (single isomer, unassigned) [Compound 11b] | 100 to 1000 | – | – |
| CCS(=O)(=O)c1ccc(CNC(=O)c2ccc3c(c2)CN(CC2CCC(O)(C(F)(F)F)CC2)C3C(C)C)nc1 (single isomer, unassigned) [Compound 11a] | < 100 | < 100 | – |
| CCS(=O)(=O)c1ccc(CNC(=O)c2ccc3c(c2)C(=O)N(C[C@H]2CC[C@H](C(F)(F)F)CC2)[C@H]3C(C)C)cc1 [Compound 29, (S)—N-(4-(ethylsulfonyl)benzyl)-1-isopropyl-3-oxo-2-((trans-4-(trifluoromethyl)cyclohexyl)methyl)isoindoline-5-carboxamide] | – | < 100 | < 100 |
| CCO[C@H]1CC[C@H](CN2Cc3cc(C(=O)N[C@@H](CCO)c4ccc(S(=O)(=O)CC)cc4)ccc3[C@H]2C(C)C)CC1 (single isomer, unassigned) [Compound 10b] | 100 to 1000 | – | – |
